Results: ChEMBL document CHEMBL1128307, “2-Aralkynyl and 2-heteroalkynyl derivatives of adenosine-5'-N-ethyluronamide as selective A2a adenosine receptor agonists” (J Med Chem, 1995)
pEC50, pKi: −log10 of the molar value.

Protein sequences, listed by entry. Tags and fused reporters are not part of them.
UniProt P25099, whole entry: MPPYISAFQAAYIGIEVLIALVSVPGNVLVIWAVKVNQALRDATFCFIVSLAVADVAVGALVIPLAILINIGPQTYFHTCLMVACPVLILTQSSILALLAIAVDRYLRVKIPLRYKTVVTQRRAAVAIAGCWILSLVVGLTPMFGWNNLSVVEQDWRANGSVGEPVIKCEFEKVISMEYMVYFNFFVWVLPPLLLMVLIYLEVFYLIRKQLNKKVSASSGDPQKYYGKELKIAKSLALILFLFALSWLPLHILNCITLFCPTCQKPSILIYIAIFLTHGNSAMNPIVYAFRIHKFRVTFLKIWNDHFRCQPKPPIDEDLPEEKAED

Tests used:
[1] = biological target: T1, Adenosine receptor A1 (Rattus norvegicus, UniProt P25099); assay: Functional activity against adenosine A1 receptor from rat atria.
[2] = biological target: T1, Adenosine receptor A1

In the case of CCNC(=O)[C@H]1O[C@@H](n2cnc3c(N)nc(NCCc4ccc(CCC(=O)O)cc4)nc32)[C@H](O)[C@@H]1O [CGS-21680], the pEC50 [1] was under 5.00 and the pKi [2] was 6.24.
